Bioassay records: PubChem, National Center for Advancing Translational Sciences (NCATS)
Nrf2 inh = Nrf2 pathway inhibition | A549 ARE-Fluc reporter, luciferase luminescence, 18-24 h | Potency, µM (series often up to 46 µM), most hits filed as inhibitors | 2.1% of 360,000 active | AID 504444; further: nearly all actives have a fitted effect of over 60% in size
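Concentration-response testing used A549 ARE_Fluc cells at 5000 cells/well. Following an 18-24 h compound incubation, viability was read by fluorescence (Ex 405/Em 525) and luciferase output by luminescence.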
A549 tox = counter-screen for Nrf2 inhibitors: cytotoxicity in A549 cells; A549 ARE-Fluc cells, CellTiter-Fluor viability, 18-24 h; Potency, µM (series often up to 46 µM), hits mostly inhibitors; 0.16% of 390,000 active; AID 504648
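Cytotoxicity counterscreen: CellTiter-Fluor fluorescence was measured in A549 ARE_Fluc cells after 18-24 h of compound exposure in a concentration series. The subsequent BugLite luminescent read reports ARE-luciferase activity.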
Mito fusion yeast = inhibitors of mitochondrial division or activators of mitochondrial fusion | S. cerevisiae fusion-defective mutant growth rescue, CellTiterGlo 48 h | Potency, µM (titrated, usually from 46.1 µM), actives largely listed as activators | 0.23% of 320,000 active; further: nearly all actives have a fitted effect of over 45% in size
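Luminescent cell viability in 1536-well qHTS format served as the measure of rescued growth in ts fusion-mutant S. cerevisiae cultured on non-fermentable YPEG for 48 hours at 37C.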
Nrf2 activator = activators of Nrf2 (ARE) signaling; 0.31% of 410,000 active; Potency, µM (series often up to 46.1 µM), most hits filed as activators; AREc32 ARE-luciferase reporter (MCF7-derived line), luminescence, 24 h; further: nearly all actives have a fitted effect of over 65% in size
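Steps: seed AREc32_Fluc cells (1000/well, 5% FBS OPTI-MEM); incubate overnight at 37 deg C; add 23 nL compound; incubate 24 hr; add Steady-Glo; hold 30 min RT; read luminescence.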
miR-21 FLuc = miR-21 reporter, rising signal | 340,000 tested, under 10 active | AID 2288 | HeLa miR-21 FLuc reporter, luciferase, 48 h | Potency, µM (titrated, usually from 38.3 µM); active = well fitted rising curve with a large enough effect; inconclusive = small, poorly fitted or top-dose-only effect; inactive = no such curve, though single readings can be large or run the other way;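 further: miR-21 action dims this reporter so a rising signal means less miR-21 action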
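HeLa cells stably expressing CMV-driven firefly luciferase with a downstream miR-21 binding sequence, endogenously expressing miR-21, were treated with titrations (up to about 40uM final) for 48 hours at 37 degree Celsius. Luciferase luminescence was read after lysis.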
A number is an active result; 0 = inactive; ? = inconclusive; - = not tested or not shown. An excerpt weighted towards active compounds, which were near 2.3% of everything screened. Unless noted, the call rests on the fitted dose curve; in most records, active means well fitted curve in the direction sought with a large enough effect; inconclusive means small, poorly fitted or top-dose-only effect, or another doubt; inactive means no such curve, though single readings can be large; an effect the other way counts as inactive or inconclusive.

SMILES | Nrf2 inh | A549 tox | Mito fusion yeast | Nrf2 activator | miR-21 FLuc
COC(=O)c1c(NC(=O)/C=C/C(=O)O)sc(C)c1-c1ccc(C)c(C)c1 | 0 | 0 | 0 | 18µM | 0
O=C(OCC#CCSc1nnc(-c2ccccc2Cl)o1)c1ccc(F)cc1 | 0 | 0 | - | - | -
O=C1CCc2cc(S(=O)(=O)Nc3cccc(-c4ccccc4)c3)ccc2N1 | ? | 0 | - | - | -
Oc1ccc(COc2ccccc2Cl)c2cccnc12 | 18µM | 0 | - | - | -
CCc1c(C)nc2nncn2c1NCc1ccccc1 | ? | 0 | - | 0 | 0
CCc1c(C)nc2nc(-c3ccccc3)nn2c1NCc1ccc(C)cc1 | 18µM | 0 | - | 0 | 0
O=C(Nc1ccc2nc(SCC(=O)N3CCc4ccccc43)sc2c1)c1ccc(F)cc1 | ? | ? | - | 0 | 0
COc1ccc(-c2cc3ncc(C)n3c(Nc3ncccc3C(N)=O)n2)cc1OC | - | - | 0 | - | -
CCCN(C(=O)c1ccco1)c1nnc(-c2cccc(C)c2)s1 | ? | 0 | 0 | 10µM | 0
COc1ccc(-c2ccc3ncnc(NCc4cccs4)c3c2)cc1 | 0 | 0 | - | - | -
COc1cc(CSc2ncc(CO)n2Cc2ccc(C)cc2)cc(OC)c1 | - | 0 | - | ? | ?
Cc1cc(-c2ccccc2)nc2[n+]1CCN2C | 5.2µM | 0 | 0 | 0 | 0
COc1ccc(CC(=O)Nc2nc(-c3cc(OC)ccc3OC)cs2)cc1 | 12µM | 0 | 0 | 0 | 0
CCc1noc(C)c1C(=O)Nc1nc(-c2ccc(OC)cc2OC)cs1 | 8.2µM | 0 | 0 | 0 | -
COc1ccc(OC)c(-c2csc(NC(=O)COC(=O)C3(C)CC3(Cl)Cl)n2)c1 (stereo unspecified) | 0 | 0 | 16µM | 0 | -
COc1ccc(OC)c(-c2csc(NC(=O)Cc3cccs3)n2)c1 | 16µM | 0 | ? | 0 | 0
O=C(NCCc1ccc(Cl)cc1)C(=O)NCC(c1cccs1)S(=O)(=O)c1cccs1 (stereo unspecified) | - | 0 | - | 0 | 0
O=S(=O)(c1c(F)cccc1F)N1CCN(S(=O)(=O)c2c(F)cccc2F)CC1 | ? | 0 | - | - | -
CC1=C(c2ccc(C)c(C)c2)S(=O)(=O)N=C1N1CCC(C(=O)Nc2cccc(F)c2)CC1 | 0 | 0 | - | 0 | 0
CCOC(=O)c1[nH]c(C)c(CCC(=O)NC(C)c2ccccc2)c1C (stereo unspecified) | - | 0 | - | 0 | 0
COc1ccc(CC(=O)Nc2nc(C)cs2)cc1 | 0 | 0 | 0 | 0 | 0
COc1cccc(CC(=O)Nc2nc(-c3cc(OC)ccc3OC)cs2)c1 | 0 | 0 | 0 | 0 | 0
COc1ccc(CC(=O)Nc2nc(C(C)(C)C)cs2)cc1 | 13µM | ? | 0 | 0 | 0
COc1ccc(OC)c(-c2csc(NC(=O)Cc3ccccc3)n2)c1 | 18µM | 0 | 0 | 0 | 0
O=C(NCCc1nc2ccccc2n1CCOc1cccc2ccccc12)C1CCCCC1 | 0 | 0 | - | - | -
SMILES | Nrf2 inh | A549 tox | Mito fusion yeast | Nrf2 activator | miR-21 FLuc
CCOc1ccc(-n2c(=O)c3c4c(sc3n(CC(=O)NC(C)CC)c2=O)CCCC4)cc1 (stereo unspecified) | 0 | 0 | - | 0 | 0
O=c1c2ccccc2nc2n1CCO2 | 0 | 0 | 0 | 0 | 0
CCc1c2c(nc3ccc4c(c13)OCCO4)-c1nc3ccccc3c(=O)n1C2 | 0.26µM | 0 | - | - | -
CC(C)c1ccc(N(C(=O)c2snc(C(N)=O)c2N)C(C(=O)NCC2CCCO2)c2ccc(N(C)C)cc2)cc1 (stereo unspecified) | 18µM | ? | 0 | 0 | ?
CN(C)c1ccc(C(C(=O)NCC2CCCO2)N(C(=O)c2snc(C(N)=O)c2N)c2ccccc2)cc1 (stereo unspecified) | 0 | 0 | 0 | 0 | 0
CN(C)c1ccc(C(C(=O)NC2CCCCC2)N(Cc2ccco2)C(=O)c2snc(C(N)=O)c2N)cc1 (stereo unspecified) | 15µM | ? | ? | 0 | 0
O=C(O)[C@H]1C[C@@H](CP(=O)(O)O)CCN1 | 0 | 0 | - | - | -
CC(=O)N1CCc2c(sc(NC(=O)c3ccc([N+](=O)[O-])o3)c2C#N)C1 | 26µM | 21µM | 0 | ? | 0
CCOc1ccc(S(=O)(=O)c2cc3cccc(OCC)c3oc2=O)cc1 | 0 | 0 | - | 4.5µM | 0
COc1ccc(S(=O)(=O)c2cc3cc(C(C)(C)C)cc(O)c3oc2=O)cc1 | ? | 0 | - | 16µM | ?
Cc1ccc(S(=O)(=O)c2cc3ccccc3oc2=O)cc1 | 0 | 0 | 0 | 5.6µM | 0
CCOc1cccc2cc(C(=O)Oc3ccc(OC)cc3)c(=O)oc12 | 0 | 0 | 0 | 0 | 0
COc1ccc(S(=O)(=O)c2cc3cc(OC)ccc3oc2=O)cc1 | 0 | 0 | - | 0 | 0
O=C(OCC#CCSc1nnc(-c2cccc3ccccc23)o1)c1ccc(Cl)c(C(F)(F)F)c1 | 0 | 0 | - | - | -
O=C(CCCN1C(=O)/C(=C\c2cccc(Br)c2)SC1=S)Nc1cccnc1 | ? | ? | 0 | 10µM | 0
Cc1ccc(/C=C2\SC(=S)N(CCCC(=O)Nc3cccnc3)C2=O)cc1 | 12µM | ? | 0 | 0 | 0
CCc1ccc(/C=C2\SC(=S)N(CCCC(=O)Nc3ccccn3)C2=O)cc1 | 23µM | 0 | 0 | 0 | 0
O=S1(=O)N=C(Oc2ccccc2-c2ccccc2)c2ccccc21 | 0 | 0 | - | - | -
CSc1ccc(CCNC(=O)CN2C(=O)COc3ccc(S(=O)(=O)N4CCCC4)cc32)cc1 | 0 | ? | - | 0 | ?
COc1ccc(OC)c(C(c2nnnn2Cc2ccco2)N2CCN(C)CC2)c1 (stereo unspecified) | 0 | 0 | 0 | 0 | 0
COc1cccc(C(c2nnnn2Cc2ccco2)N2CCN(c3cccc(C)c3C)CC2)c1OC (stereo unspecified) | 23µM | 0 | 0 | 0 | 0
C#CC(=O)N(c1ccc(OC)c(OC)c1)C(C(=O)NC1CCCC1)c1cccs1 (stereo unspecified) | 23µM | ? | 0 | ? | 0
C#CC(=O)N(c1cccc(OC)c1)C(C(=O)NC1CCCC1)c1cccs1 (stereo unspecified) | 16µM | 0 | 0 | 0 | ?
COc1ccc(N(C(=O)Cc2cccs2)C(C(=O)NC2CCCC2)c2ccncc2)cc1OC (stereo unspecified) | 0 | 0 | 0 | 0 | 0
Cc1cccc(Nc2nnc(-c3ccc(C)c(S(=O)(=O)N4CCOCC4)c3)c3ccccc23)c1 | 0 | 0 | - | 0 | 0
SMILES | Nrf2 inh | A549 tox | Mito fusion yeast | Nrf2 activator | miR-21 FLuc
O=C(Nc1ccc2nc(SCC(=O)N3CCCC3)sc2c1)c1cccc(Br)c1 | 18µM | 0 | - | 0 | ?
Cc1ccccc1OCC(=O)Nc1ccc2nc(SCC(=O)N3CCOCC3)sc2c1 | ? | 0 | - | 0 | 0
O=C(Nc1ccc2nc(SCC(=O)N3CCOCC3)sc2c1)c1cccc(Cl)c1 | 23µM | ? | - | 0 | ?
CN(C(=O)CSc1nc2ccc(NC(=O)c3cccc(F)c3)cc2s1)c1ccccc1 | 21µM | 0 | - | 0 | ?
CN(C(=O)CSc1nc2ccc(NC(=O)c3ccccc3F)cc2s1)c1ccccc1 | ? | ? | - | 0 | 0
Cc1ccccc1OCC(=O)Nc1ccc2nc(SCC(=O)N3CCCC3)sc2c1 | 18µM | 0 | - | 0 | 0
